# Experimental data taken from PubChem BioAssay AID463229 (Broad Institute, 2010).
# System: INS-1E rat beta cells, no cytokines, CellTiter-Glo ATP, 48 h
# Assay: ATP level change in INS-1E without cytokines, dose response, counter-screen for beta-cell apoptosis protection project, INS-1E rat cells, ATP luminescence, cherry pick (AID 463229)
compound,measurement,value
CC[n+]1c(/C=C/N(C)c2ccccc2)oc2ccccc21,AC50,893 nM
